Test [1] addresses 5-hydroxytryptamine receptor 2C (Homo sapiens, UniProt P28335). Nature of the test: Displacement of [3H]Mesulergine from human 5-HT2C-INI receptor expressed in HEK293 cells by scintillation counting analysis. In kind it is cell-based. In general terms: Loss of bound radioactivity is the signal in a displacement assay; it reports binding, not function.
Test [2] deals with 5-hydroxytryptamine receptor 2A (Homo sapiens, UniProt P28223). Description: Displacement of [3H]Ketanserin from human 5-HT2A receptor expressed in HEK293 cells by scintillation counting analysis. In kind it is cell-based.

Amino acid sequences for entries named in this document (tags omitted). A change or cut given only in a name is not applied to a line headed by its entry.
UniProt P28335: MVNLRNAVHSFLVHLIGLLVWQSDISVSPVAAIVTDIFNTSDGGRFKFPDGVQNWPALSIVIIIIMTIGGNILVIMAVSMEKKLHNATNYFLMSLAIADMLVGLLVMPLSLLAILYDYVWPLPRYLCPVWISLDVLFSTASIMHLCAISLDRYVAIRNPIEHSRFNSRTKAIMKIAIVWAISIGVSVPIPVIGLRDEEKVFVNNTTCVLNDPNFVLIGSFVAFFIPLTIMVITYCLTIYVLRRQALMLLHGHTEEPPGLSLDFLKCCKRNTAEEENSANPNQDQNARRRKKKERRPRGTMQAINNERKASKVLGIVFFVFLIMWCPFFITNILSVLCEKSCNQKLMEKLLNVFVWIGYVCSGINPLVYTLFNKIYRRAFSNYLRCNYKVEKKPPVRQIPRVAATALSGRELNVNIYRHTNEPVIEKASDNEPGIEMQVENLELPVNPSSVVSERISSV
UniProt P28223, whole entry: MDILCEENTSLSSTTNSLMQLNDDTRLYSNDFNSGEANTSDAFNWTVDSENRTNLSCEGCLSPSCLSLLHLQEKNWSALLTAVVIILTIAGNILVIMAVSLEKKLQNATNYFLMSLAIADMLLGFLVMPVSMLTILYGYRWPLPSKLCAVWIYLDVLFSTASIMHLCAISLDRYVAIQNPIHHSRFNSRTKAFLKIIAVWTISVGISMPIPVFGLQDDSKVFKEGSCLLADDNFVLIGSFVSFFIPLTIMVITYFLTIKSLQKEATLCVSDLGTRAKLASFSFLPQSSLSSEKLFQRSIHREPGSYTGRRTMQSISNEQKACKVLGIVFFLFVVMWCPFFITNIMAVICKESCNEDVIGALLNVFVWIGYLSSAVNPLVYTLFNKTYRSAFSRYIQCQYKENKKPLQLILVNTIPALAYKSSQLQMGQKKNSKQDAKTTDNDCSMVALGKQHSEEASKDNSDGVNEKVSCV

For 2 compounds, Ki results are on record in ChEMBL document CHEMBL3400036, “Novel 4-substituted-N,N-dimethyltetrahydronaphthalen-2-amines: synthesis, affinity, and in silico docking studies at serotonin 5-HT2-type and histamine H1 G protein-coupled receptors” (Bioorg Med Chem, 2015).

Structures are written as SMILES.

For orientation: Ki means the equilibrium dissociation constant of an inhibitor or competing ligand from its target. The low end stands for tighter binding, the high end for weaker binding. Take `CN(C)[C@@H]1Cc2ccccc2[C@@H](C2CCCCCCC2)C1`: the affinity in test [1] corresponds to a Ki of 0.03 µM. This lies in the double-digit nanomolar range. In turn, `CN(C)[C@@H]1Cc2ccccc2[C@@H](c2cccc(-c3ccccc3)c2)C1` yielded a Ki in test [2] of 0.044 µM.
